Data reported in patent publication US11040106B2, “Conjugates of kinase inhibitors and cyanine dyes” (priority 2018, dated 2021).
“Also recorded” adds a separate entry of the source.

By UniProt entry, the sequences of proteins in these tests, tags left out. Residues count along the entry.
UniProt P02768, 25-609: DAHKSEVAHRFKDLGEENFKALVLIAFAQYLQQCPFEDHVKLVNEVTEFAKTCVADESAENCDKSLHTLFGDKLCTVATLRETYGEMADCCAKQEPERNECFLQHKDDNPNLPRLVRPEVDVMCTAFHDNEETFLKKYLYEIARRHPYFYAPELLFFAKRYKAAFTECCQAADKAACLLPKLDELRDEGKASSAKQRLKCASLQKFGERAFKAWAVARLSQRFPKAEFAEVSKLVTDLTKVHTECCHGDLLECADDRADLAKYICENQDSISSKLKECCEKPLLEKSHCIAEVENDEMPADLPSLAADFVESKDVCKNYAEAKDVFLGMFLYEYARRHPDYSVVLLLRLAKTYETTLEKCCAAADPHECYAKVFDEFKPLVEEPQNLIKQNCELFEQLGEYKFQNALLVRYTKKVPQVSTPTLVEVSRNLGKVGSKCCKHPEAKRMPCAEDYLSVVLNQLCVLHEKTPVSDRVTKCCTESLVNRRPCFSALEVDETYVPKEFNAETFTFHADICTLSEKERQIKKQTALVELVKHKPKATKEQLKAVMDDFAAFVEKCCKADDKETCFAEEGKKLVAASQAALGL

Assays:
U87-MG cells = test: Cytotoxicity of ICG, MHI-148 and QCy, 72 h in the dark, AlamarBlue
Text: Cytotoxicity of QCy was studied using U87-MG cells (a glioblastoma multiforme line).

HSA = HSA (Homo sapiens, UniProt P02768); test: Covalent binding / reaction of cyanines with HSA (LC/MS, ESI MS, NIR-fluorescent gel); settings: HEPES buffer pH 7.4, 37° C.
Procedure: FIGS. 33A to 33D show kinetics of a, 1, c, 4, d, 5; e, 6 in 1 M HEPES buffer pH 7.4. […] The kinetics was examined on C, 18 column using Agilent 1200 series LC/MS at 600 nm.
FIGS. 34A and 34B show mass spectra of a, free HSA and b, 1 bound to HSA. HSA: 1 (2.5:1); buffer 1 M HEPES.
In a control experiment, human serum albumin (HSA) was reacted with 2.5 equivalents of 1-Cl at 37° C. in 1 M HEPES buffer. This 1-Cl:albumin molar ratio was selected because it is approximately that used in cell culture experiments to probe uptake of this dye.
To test this assertion the experimental design was modified in the following way.

Substance: Indocyanine green [ICG]
- cytotoxicity (in words) (U87-MG cells): not significantly cytotoxic up to 80 μM; also recorded: not very toxic until 80 μM
- covalent binding / reaction with HSA (HSA): do not react with HSA
